Assay results reported in patent US7247440B2, “Method of screening preventives or remedies for obesity” (Takeda Pharmaceutical Company Limited, priority 2001, dated 2007).

Amino acid sequences for entries named in this document (tags omitted). A change or cut given only in a name is not applied to a line headed by its entry.
UniProt P48146: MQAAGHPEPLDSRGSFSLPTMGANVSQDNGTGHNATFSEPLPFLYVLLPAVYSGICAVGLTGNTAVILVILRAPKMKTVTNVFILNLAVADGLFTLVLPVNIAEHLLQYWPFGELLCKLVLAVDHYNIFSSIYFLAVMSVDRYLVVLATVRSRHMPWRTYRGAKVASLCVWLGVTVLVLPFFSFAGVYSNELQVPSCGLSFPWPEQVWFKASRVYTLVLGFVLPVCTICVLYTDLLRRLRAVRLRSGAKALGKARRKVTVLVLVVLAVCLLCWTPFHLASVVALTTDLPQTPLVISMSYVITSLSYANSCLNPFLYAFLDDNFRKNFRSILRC

How the values were obtained:
GPR8 [1] = molecular target: T1, GPR8 (Homo sapiens, UniProt P48146); assay: GTPγ S binding promoting activity on GPR8-expressed CHO cell membrane fraction; type: biochemical; design: expressed in transfected cells; host or cells: CHO dhfr- cells, plasmid pAKKO-GPR8 (clones #17, #41, #46; mainly #17); settings: various concentrations
Procedure: The [^35S]-guanosine 5′-(γ-thio)triphosphate binding promoting activity on a GPR8-expressed CHO cell membrane fraction was assayed by the following procedures. First, preparation of the membrane fraction is described. To 1×10^8 of CHO/GPR8 cells was added 10 ml of a homogenate buffer (10 mM NaHCO3, 5 mM EDTA, 0.5 mM PMSF, 1 μg/ml pepstatin, 4 μg/ml E64 and 20 μg/ml leupeptin). The mixture was homogenized by using Polytron (12,000 rpm, 1 min.). The cell homogenate was subjected to centrifugation (1,000 g, 15 mins.) to obtain the supernatant. Next, the supernatant was subjected to ultracentrifugation (Beckman type 30 rotor, 30,000 rpm, 1 hour). The resulting precipitate was used as GPR8-expressed CHO cell membrane fraction.
The GTPγ S binding activity was assayed as follows. The GPR8expressed CHO cell membrane fraction was diluted with a membrane dilution buffer (50 mM Tris-hydrochloride buffer (pH 7.4), 5 mM MgCl2, 150 mM NaCl, 1 μM GDP) to prepare a cell membrane fraction solution for assay having a protein level of 30 mg/ml. To 200 μl of the cell membrane fraction solution for assay were added 2 μl of 51.5 nM [^35S]-guanosine 5′-(γ-thio)triphosphate (NEN Co.) and a sample fluid. […] After washing twice with 1.5 ml of a wash buffer (50 mM Tris-hydrochloride buffer (pH 7.4), 5 mM MgCl2, 1 mM EDTA, 0.1% BSA), radioactivity of the filter was measured with a liquid scintillation counter. […]

GPR8 [2] = molecular target: T1, GPR8; assay: Receptor binding test using [125I-Tyr10]-hGPR8L (1-23) and GPR8-expressed CHO cell membrane fraction; design: expressed in transfected cells; host or cells: membrane fraction of CHO dhfr- cells transfected with pAKKO-GPR8; settings: inhibition of [125I-Tyr10]-hGPR8L (1-23) binding; GPR8-expressed CHO cell membrane fraction

| SMILES | GTPγ S binding promoting activity (in words) (GPR8 [1]) | IC50 (GPR8 [2]) |
| --- | --- | --- |
| CSCC[C@H](NC(=O)[C@H](CC(C)C)NC(=O)[C@H](CC(C)C)NC(=O)CNC(=O)[C@H](C)NC(=O)[C@H](C)NC(=O)[C@H](CCCNC(=N)N)NC(=O)CNC(=O)[C@@H](NC(=O)[C@@H](NC(=O)[C@H](Cc1c[nH]cn1)NC(=O)[C@H](Cc1ccc(O)cc1)NC(=O)[C@H](CCCNC(=N)N)NC(=O)[C@@H]1CCCN1C(=O)[C@H](CO)NC(=O)[C@H](C)NC(=O)[C@@H](NC(=O)[C@H](Cc1c[nH]cn1)NC(=O)[C@H](CCCCN)NC(=O)[C@H](Cc1ccc(O)cc1)NC(=O)[C@@H](N)Cc1c[nH]c2ccccc12)C(C)C)[C@@H](C)O)C(C)C)C(=O)NCC(=O)N[C@@H](CC(C)C)C(=O)N[C@@H](CCCNC(=N)N)C(=O)N[C@@H](CCCNC(=N)N)C(=O)N[C@@H](CO)C(=O)N1CCC[C@H]1C(=O)N[C@@H](Cc1ccc(O)cc1)C(=O)N[C@@H](CC(C)C)C(=O)N[C@@H](Cc1c[nH]c2ccccc12)C(=O)O [hGPR8L(1–30)] | dose-dependently promoted the GTPγ S binding | – |
| CSCC[C@H](NC(=O)[C@H](CC(C)C)NC(=O)[C@H](CC(C)C)NC(=O)CNC(=O)[C@H](C)NC(=O)[C@H](C)NC(=O)[C@H](CCCNC(=N)N)NC(=O)CNC(=O)[C@@H](NC(=O)[C@@H](NC(=O)[C@H](Cc1c[nH]cn1)NC(=O)[C@H](Cc1ccc(O)cc1)NC(=O)[C@H](CCCNC(=N)N)NC(=O)[C@@H]1CCCN1C(=O)[C@H](CO)NC(=O)[C@H](C)NC(=O)[C@@H](NC(=O)[C@H](Cc1c[nH]cn1)NC(=O)[C@H](CCCCN)NC(=O)[C@H](Cc1ccc(O)cc1)NC(=O)[C@@H](N)Cc1c[nH]c2ccccc12)C(C)C)[C@@H](C)O)C(C)C)C(=O)NCC(=O)N[C@@H](CC(C)C)C(=O)O [hGPR8L(1–23)] | dose-dependently | 0.25 nM |
